{"sequences": {"note": "The chains behind the UniProt entries cited, without tags or fusion partners. Where a name states a change or a piece, a line headed by the entry shows the natural chain unless it says otherwise. Residues count along the entry.", "UniProt Q7NDN8, 44-359": "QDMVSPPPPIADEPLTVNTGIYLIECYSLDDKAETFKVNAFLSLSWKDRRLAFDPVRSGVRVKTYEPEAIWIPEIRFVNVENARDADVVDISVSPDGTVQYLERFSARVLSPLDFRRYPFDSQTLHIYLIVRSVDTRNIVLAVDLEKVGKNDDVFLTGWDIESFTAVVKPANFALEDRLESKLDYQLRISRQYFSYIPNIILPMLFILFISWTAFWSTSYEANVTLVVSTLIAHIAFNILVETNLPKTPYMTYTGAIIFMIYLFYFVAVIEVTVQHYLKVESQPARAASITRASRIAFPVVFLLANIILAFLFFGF"}, "source": "paper PMC4414916", "about": "(Biochemistry, 2015)", "experiment_in_all_cases": "cell-based", "key": {"GLIC–Glyα1 0B": {"target": "GLIC–Glyα1 0B (Gloeobacter violaceus, UniProt Q7NDN8)"}, "GLIC–nAChα7 1B": {"target": "GLIC–nAChα7 1B (Gloeobacter violaceus, UniProt Q7NDN8)"}, "GLIC–GABAAρ1 1B": {"target": "GLIC–GABAAρ1 1B (Gloeobacter violaceus, UniProt Q7NDN8)"}, "WT GLIC": {"target": "WT GLIC (Gloeobacter violaceus, UniProt Q7NDN8)"}, "GLIC–Glyαl 1B": {"target": "GLIC–Glyαl 1B (Gloeobacter violaceus, UniProt Q7NDN8)", "conditions": "IC50, TBA inhibition of pH 4.5-induced currents, GLIC–Glyα1 1B"}, "[1]": {"target": "GLIC–eukaryotic–ICD chimeras (Gloeobacter violaceus, UniProt Q7NDN8)"}, "GLIC–5-HT3A 0B": {"target": "GLIC–5-HT3A 0B (Gloeobacter violaceus, UniProt Q7NDN8)"}, "GLIC–nAChα7 OB": {"target": "GLIC–nAChα7 OB (Gloeobacter violaceus, UniProt Q7NDN8)"}, "GLIC–GABAAρ1 0B": {"target": "GLIC–GABAAρ1 0B (Gloeobacter violaceus, UniProt Q7NDN8)"}, "GLIC–5-HT3A 1B": {"target": "GLIC–5-HT3A 1B (Gloeobacter violaceus, UniProt Q7NDN8)"}, "[2]": {"conditions": "IC50, TBA inhibition of pH 4.5-induced currents"}, "[3]": {"conditions": "log IC50, TBA inhibition of pH 4.5-induced currents, ± standard error"}}, "note": "pIC50: −log10 of the molar value.", "data": [{"smiles": "CCCC[N+](CCCC)(CCCC)CCCC", "note": "[TBA, tetrabutylammonium]", "values": [{"measurement": "pIC50", "setting": "GLIC–Glyα1 0B; [2]", "result": 3.49}, {"measurement": "pIC50", "setting": "GLIC–Glyα1 0B; [3]", "result": 3.53}, {"measurement": "pIC50", "setting": "GLIC–nAChα7 1B; [2]", "result": 3.28}, {"measurement": "pIC50", "setting": "GLIC–nAChα7 1B; [3]", "result": 3.30}, {"measurement": "pIC50", "setting": "GLIC–GABAAρ1 1B; [2]", "result": 2.98}, {"measurement": "pIC50", "setting": "GLIC–GABAAρ1 1B; [3]", "result": 3.04}, {"measurement": "pIC50", "setting": "WT GLIC; IC50, text value, wild-type GLIC, pH 4.5", "result": 3.30}, {"measurement": "pIC50", "setting": "WT GLIC; log IC50, TBA inhibition of pH 4.5-induced currents, WT GLIC, ± standard error", "result": 3.34}, {"measurement": "pIC50", "setting": "GLIC–Glyαl 1B", "result": 3.34}, {"measurement": "pIC50", "setting": "[1]", "result": "2.70 to 4.00"}, {"measurement": "pIC50", "setting": "GLIC–5-HT3A 0B; IC50, TBA inhibition of pH 4.5-induced currents, GLIC–5-HT3A 0B", "result": 3.92}, {"measurement": "pIC50", "setting": "GLIC–5-HT3A 0B; IC50, text value, GLIC–5HT3A 0B chimera, pH 4.5", "result": 4.00}, {"measurement": "pIC50", "setting": "GLIC–5-HT3A 0B; log IC50, TBA inhibition of pH 4.5-induced currents, GLIC–5-HT3A 0B, ± standard error", "result": 4.02}, {"measurement": "pIC50", "setting": "GLIC–nAChα7 OB; [2]", "result": 3.41}, {"measurement": "pIC50", "setting": "GLIC–nAChα7 OB; [3]", "result": 3.44}, {"measurement": "pIC50", "setting": "GLIC–GABAAρ1 0B; IC50, TBA inhibition of pH 4.5-induced currents, GLIC–GABAAρ1 0B", "result": 2.69}, {"measurement": "pIC50", "setting": "GLIC–GABAAρ1 0B; IC50, text value, GLIC–GABAAρ1 0B chimera, pH 4.5", "result": 2.70}, {"measurement": "pIC50", "setting": "GLIC–GABAAρ1 0B; log IC50, TBA inhibition of pH 4.5-induced currents, GLIC–GABAAρ1 0B, ± standard error", "result": 2.70}, {"measurement": "pIC50", "setting": "GLIC–5-HT3A 1B; IC50, TBA inhibition of pH 4.5-induced currents, GLIC–5-HT3A 1B", "result": 3.90}, {"measurement": "pIC50", "setting": "GLIC–5-HT3A 1B; IC50, text value, GLIC–5HT3A 1B chimera, pH 4.5", "result": 4.00}, {"measurement": "pIC50", "setting": "GLIC–5-HT3A 1B; log IC50, TBA inhibition of pH 4.5-induced currents, GLIC–5-HT3A 1B, ± standard error", "result": 3.92}]}]}
